Experimental data: patent US20180185510A1, “ANTIBODY DRUG CONJUGATES OF KINESIN SPINDEL PROTEIN (KSP) INHIBITORS WITH ANTI-B7H3-ANTIBODIES” (BAYER PHARMA AKTIENGESELLSCHAFT, priority 2015, published 2018)

Columns and labels:
Format in all cases: in vivo, female NMRI-nude mice
Caki-2 tumour model = assay: Activity of anti-B7H3 ADCs in Caki-2 tumour model; details: Caki-2, 10 mg/kg, Q7dx4, i.v., D24
Method: (§1) The cell suspension is injected underneath the skin of the mouse.
(§2) Over a number of days, a tumour grows. Treatment is started after the tumour has established itself, approximately at a tumour size of 40 mm^2.
(§3) Standard treatment is three times in succession every fourth day. In the case of slow-growing tumours, treatment once a week is recommended. For a short-term assessment, it may also be suitable to employ a protocol where treatment occurs only once. However, treatment may also be continued, or may be followed by a second cycle of three treatment days at a later point in time.
(§4) As standard, 8 animals per treatment group are employed. In addition to the groups receiving the drugs, one group, as control group, is only treated with buffer, following the same scheme.
(§5) The tumour area is determined as length x width.
(§6) The tumour cells are inoculated subcutaneously into the side of female NMRI-nude mice (Janvier). At a tumour size of ˜40 mm^2, treatment takes place intravenously using the antibody drug conjugate. After the treatment, tumour growth is optionally monitored further.

MCF-7 tumour model = assay: Activity of anti-B7H3 ADCs in MCF-7 tumour model; details: MCF-7, 10 mg/kg, Q7dx4, i.v., D24
Method: as §1, §2, §3, §4, §5, §6

A498 tumour model = assay: Activity of anti-B7H3 ADCs in A498 tumour model; details: A498, 10 mg/kg, Q7dx3, i.v., D14
Method: as §1, §2, §3, §4, §5, §6

B1: Example 208L2 (conjugate)
heavy: QVQLQQPGAELVKPGASVKMSCKASGYTFTIYNVHWIKQTPGQGLEWMGTIFPGNGDTSYNQKFKDKATLTTDKSSKTAYMQLNSLTSEDSAVYYCARWDDGNVGFAHWGQGTLVTVSAASTKGPSVFPLAPSSKSTSGGTAALGCLVKDYFPEPVTVSWNSGALTSGVHTFPAVLQSSGLYSLSSVVTVPSSSLGTQTYICNVNHKPSNTKVDKKV[omitted - human IgG1 Fc]
light: DIQMTQSPASLSASVGETVTITCRASENINNYLTWFQQKQGKSPQLLVYHAKTLAEGVPSRFSGSGSGTQFSLKINSLQPEDFGSYYCQHHYGTPPTFGGGTKLEIKRTVAAPSVFIFPPSDEQLKSGTASVVCLLNNFYPREAKVQWKVDNALQSGNSQESVTEQDSKDSTYSLSSTLTLSKADYEKHKVYACEVTHQGLSSPVTKSFNRGEC
- T/Copt area (Caki-2 tumour model): 0.65 (D24)
- T/Copt area (MCF-7 tumour model): 0.67 (D24)
- T/Copt area (A498 tumour model): 0.49 (D14)
